# Measurements taken from PubChem BioAssay AID488847 (NMMLSC, 2010).
# Amino acid sequences for entries named in this document (tags omitted).
# UniProt P25098, whole entry: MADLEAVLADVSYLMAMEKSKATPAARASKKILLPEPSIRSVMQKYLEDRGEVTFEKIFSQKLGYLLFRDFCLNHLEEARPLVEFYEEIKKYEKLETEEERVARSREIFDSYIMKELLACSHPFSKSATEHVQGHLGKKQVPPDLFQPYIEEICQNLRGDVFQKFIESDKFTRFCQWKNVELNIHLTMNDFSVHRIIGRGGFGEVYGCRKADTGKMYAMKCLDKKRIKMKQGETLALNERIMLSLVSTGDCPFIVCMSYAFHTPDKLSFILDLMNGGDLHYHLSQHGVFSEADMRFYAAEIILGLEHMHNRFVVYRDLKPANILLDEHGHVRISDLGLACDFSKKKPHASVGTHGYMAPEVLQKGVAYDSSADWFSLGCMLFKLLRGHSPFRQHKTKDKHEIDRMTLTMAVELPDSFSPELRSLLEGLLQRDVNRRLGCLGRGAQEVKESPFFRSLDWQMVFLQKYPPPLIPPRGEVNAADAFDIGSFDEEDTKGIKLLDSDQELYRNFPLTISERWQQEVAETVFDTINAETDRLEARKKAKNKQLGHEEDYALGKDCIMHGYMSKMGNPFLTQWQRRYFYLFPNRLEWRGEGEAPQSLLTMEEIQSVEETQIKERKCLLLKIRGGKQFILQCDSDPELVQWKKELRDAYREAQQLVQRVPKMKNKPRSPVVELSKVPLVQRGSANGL
# Only a part is listed here, and it is no random draw. Some results for these compounds are left out of this collection, so the calls shown say nothing about other tests. Calls of active or inactive are those of the source.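 Rule for the calls: active = inhibition of aptamer binding above 40%, roughly 3 SD of noise, on plates passing a quality check; inactive = the rest.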
# Target: Beta-adrenergic receptor kinase 1 (Homo sapiens) (UniProt P25098)
# Assay: compounds blocking aptamer binding on GRK2 – biochemical, human GRK2, bead flow cytometry, HTS, primary screen (AID 488847);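 note: median bead fluorescence of bound FAM aptamer so fluorescent compounds give negative values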
# Settings: FAM-aptamer displacement from GRK2, at 10 µM, stronger effect = higher value
row,Compound,inhibition of aptamer binding
1,CC(C)N1C(=O)CC2(CCN(CCOC(=O)C(O)(c3ccccc3)c3ccccc3)CC2)C1=O,inactive: 2%
2,COc1cc(SC)ccc1C(=O)NCC1(N(C)C)CCCCC1,inactive: 0%
3,CCN(CC)CC(C)C(C)OC(=O)C(O)(c1ccccc1)c1ccccc1 (centres undefined),inactive: 0%
4,Cc1ccc(C(=O)NCC2(N3CCCCC3)CCCCC2)cc1,inactive: 0%
5,O=C(NCC1(N2CCCCC2)CCCCC1)c1cc([N+](=O)[O-])ccc1Cl,inactive: 0%
6,CN1[C@@H]2CC[C@H]1CC(OC(=O)C(O)(c1ccccc1)c1ccccc1)C2 (some centres undefined),inactive: 0%
7,O=C(NCC1(N2CCCCC2)CCCCC1)c1cc(F)c(F)cc1Cl,inactive: 0%
8,C=CCN1CCN(CCOC(=O)C(O)(c2ccccc2)c2ccccc2)CC1,inactive: 0%
9,O=C(NCC1(N2CCCCC2)CCCCC1)c1cccc(Br)c1,inactive: 5%
10,CCN1CCCC(OC(=O)C2(O)c3ccccc3C=Cc3ccccc32)C1 (centres undefined),inactive: 0%
11,Cc1cc(C(=O)NCC2(N3CCCCC3)CCCCC2)ccc1[N+](=O)[O-],inactive: 0%
12,COc1ccc(C(=O)NCC2(N(C)C)CCCCC2)cc1,inactive: 0%
13,CN(C)c1ccc(C(=O)NCC2(N(C)C)CCCCC2)cc1,inactive: 0%
14,CN(C)C1CCCC1OC(=O)C(O)(c1ccccc1)c1ccccc1 (centres undefined),inactive: 0%
15,Cc1ccccc1C(=O)NCC1(N2CCCCC2)CCCCC1,inactive: 0%
16,COc1ccc(Cl)cc1C(=O)NCC1(N(C)C)CCCCC1,inactive: 0%
17,COc1cccc(C(=O)NCC2(N3CCCCC3)CCCCC2)c1,inactive: 2%
18,O=C(NCC1(N2CCCCC2)CCCCC1)c1cccc(Cl)c1,inactive: 0%
19,CN(C)C1(CNC(=O)c2ccc(Br)cc2)CCCCC1,inactive: 0%
20,COc1cc(C(=O)NCC2(N(C)C)CCCCC2)c([N+](=O)[O-])cc1OC,inactive: 0%
21,COc1ccc(Br)c(C(=O)NCC2(N3CCCCC3)CCCCC2)c1,inactive: 0%
22,CN(C)c1cccc(C(=O)NCC2(N(C)C)CCCCC2)c1,inactive: 1%
23,CC(C)Oc1ccc(C(=O)NCC2(N(C)C)CCCCC2)cc1,inactive: 1%
24,O=C(OC1CN2CCC1CC2)C(CO)(c1ccccc1)c1ccccc1 (centres undefined),inactive: 0%
